Values quoted from earlier work in patent US9796990B2 (priority 2011, dated 2017).

Legend:
[1] = system: Bluegill (Lepomis macrochirus); conditions: in vivo; cited from earlier work
[2] = system: aquatic and terrestrial biota; conditions: in vivo; cited from earlier work

Oc1nc(Cl)c(Cl)cc1Cl [TCP, 3,5,6 trichloropyridin-2-ol]
toxicity compared with the parent compound chlorpyriphos [1]: considerably less toxic than the parent compound | toxicity to aquatic and terrestrial biota [2]: low to moderate toxicity
